Experimental data reported in paper PMC12481580 (Journal of Medicinal Chemistry, 2025).

Sequences of proteins named here, by UniProt entry; tags and fusion partners are left off.
UniProt P30989, whole entry: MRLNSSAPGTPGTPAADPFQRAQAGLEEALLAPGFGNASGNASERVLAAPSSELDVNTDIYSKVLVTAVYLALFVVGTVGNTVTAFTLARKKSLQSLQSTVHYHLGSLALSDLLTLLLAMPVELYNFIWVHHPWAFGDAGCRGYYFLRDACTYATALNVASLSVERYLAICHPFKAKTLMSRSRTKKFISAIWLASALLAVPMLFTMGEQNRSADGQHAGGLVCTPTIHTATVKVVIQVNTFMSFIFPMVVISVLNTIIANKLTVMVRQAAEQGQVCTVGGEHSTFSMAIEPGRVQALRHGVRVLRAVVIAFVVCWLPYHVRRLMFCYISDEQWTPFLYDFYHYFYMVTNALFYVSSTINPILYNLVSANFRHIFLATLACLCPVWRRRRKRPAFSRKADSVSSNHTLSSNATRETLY

Experiments:
[1] = target: neurotensin receptor 1 (NTS1R), endogenous in HT-29 colon carcinoma cells (human (endogenous in HT-29)) (UniProt P30989)
NTS1R = NTS1R (Homo sapiens, UniProt P30989); assay: flow cytometric association and dissociation kinetics at HT-29 cells; format: binding; details: K d(kin) = k off/k on; ± propagated error; read-out: K d(kin) from k off and k on (monophasic association)

Molecule	EC50, Fura-2 Ca^2+ assay at HT-29 cells (NTS1R agonism) [1] [pM]	pEC50, Fura-2 Ca^2+ assay at HT-29 cells (NTS1R agonism) [1]	Kd (NTS1R) [pM]
NT(8–13) (peptide)	1200	8.96	
CC[C@H](C)[C@H](NC(=O)[C@@H](NC(=O)[C@@H]1CCCN1C(=O)[C@H](CCCNC(=N)N)NC(=O)[C@H](CCCNC(=N)NC(=O)NCCCCNC(=O)CCCCCN1\C(=C/C=C/C=C/C2=[N+](CCCCS(=O)(=O)[O-])c3ccccc3C2(C)C)C(C)(C)c2cc(S(=O)(=O)O)ccc21)NC)C(C)(C)c1ccc(O)cc1)C(=O)N[C@@H](C[Si](C)(C)C)C(=O)O [compound 21, N ^α-Methyl-N ^ω-{[4-(N-{6-3H-[2-(5–3H-(1-(4-sulfonatobutyl)-3,3-dimethyl)indol-2-ylidenepent-1,3-dienyl)-3,3-dimethyl-5-sulfo]indol-1-ium-1-yl}hexanoyl)-aminobutyl]aminocarbonyl}Arg-Arg-Pro-β,β-dimethyl-L-Tyr-Ile-β-trimethylsilyl-Ala Tris(hydrotrifluoroacetate)]			30 ± 7
